From PMC6895048, “4,5-Disubstituted 1,2,3-triazoles: Effective Inhibition of Indoleamine 2,3-Dioxygenase 1 Enzyme Regulates T cell Activity and Mitigates Tumor Growth” (Scientific Reports, 2019)

By UniProt entry, the sequences of proteins in these tests, tags left out.
UniProt P14902, whole entry: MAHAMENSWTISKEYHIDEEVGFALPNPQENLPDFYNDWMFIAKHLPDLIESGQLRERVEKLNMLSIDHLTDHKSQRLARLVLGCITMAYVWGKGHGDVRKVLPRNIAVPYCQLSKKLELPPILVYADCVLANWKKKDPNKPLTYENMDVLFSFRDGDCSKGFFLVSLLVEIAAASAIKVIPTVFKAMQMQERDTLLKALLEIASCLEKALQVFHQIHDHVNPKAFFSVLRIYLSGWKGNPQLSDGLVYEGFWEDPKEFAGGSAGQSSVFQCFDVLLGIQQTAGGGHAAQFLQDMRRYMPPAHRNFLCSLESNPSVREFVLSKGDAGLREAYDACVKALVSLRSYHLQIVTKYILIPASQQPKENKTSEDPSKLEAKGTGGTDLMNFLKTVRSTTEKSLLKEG

Key:
[1] = molecular target: T1, purified human IDO1 enzyme (Homo sapiens, UniProt P14902); test: IDO1 inhibition assay by the spectrometric method (pDMAB); format: biochemical; conditions: spectrophotometric method
T1 construct: made in house; host or cells: Escherichia coli M15 (pQE30 vector with pREP4 plasmid)
Protocol: Both IDO1 and TDO inhibition assays were performed according to the reported procedures[26]–[30],[50],[51]. […] In the assay system, the minimum and maximum amount of DMSO was 0.02% and 2%, respectively. […] The concentration of the inhibitors was varied from 100 µM to 32 nM by serial dilution technique. Then, the reaction was quenched with 100 µL of 30% (w/v) trichloroacetic acid and was incubated for further 15 minutes at 65 °C. After that, 2% (w/v) pDMAB was used to quantify the amount of kynurenine formation. The absorbance of the reaction mixture was recorded by UV-Vis spectrophotometer at 480 nm.

[2] = molecular target: IDO1 (Homo sapiens, UniProt P14902); test: Cellular IDO1 activity assay in IFN-γ induced MDA-MB-231 cells; format: cell-based; parameters: induce the expression of the native IDO1 enzyme from its mRNA in the MDA-MB-231 cells; endogenous in cells; host or cells: MDA-MB-231 cells induced with human IFN-γ (50 ng/mL)
Protocol: The cellular enzyme activity assay was performed according to the reported procedure with minor modifications[19],[27]–[30],[33],[54]. Briefly, MDA-MB-231 breast cancer cells were selected for this assay because of the presence of IDO1 mRNA in this cell line. First, cells were grown in DMEM/F12 complete media overnight. Then different concentration of human interferon-gamma (IFN-γ) (from 5–1000 ng/mL) was added to it and incubated for 48 hours. This treatment is reported to allow over-expression of IDO1 enzyme in MDA-MB-231 cells. […] Sterile cell-culture grade PBS was used to wash the cells by centrifugation technique. Then, the pellet was lysed in 10 mM HEPES buffer by passing through a sterile syringe. The lysate was used for standard IDO1 assay as mentioned earlier. The relative amount of N-formylkynurenine generated in the presence of the different concentration of IFN-γ was used to optimize the required concentration of IFN-γ for the IDO1 inhibition assay. […] Cells stimulated with IFN-γ alone were used as negative control, while cells stimulated with L-Trp without compound served as positive control. The cells were washed with sterile cell culture grade PBS and lysed in 10 mM HEPES buffer by sterile syringe. The lysate was used for standard IDO1 assay, as mentioned earlier, and the extent of IDO1 enzyme inhibition was determined for the selected compounds.

IC50 [1]: 317 nM
EC50 [2]: 120 nM
Structure (SMILES): Oc1ccc(Cl)cc1-c1c[nH]nn1 [MMG-0358, 4-chloro-2-(1H-1,2,3-triazol-5-yl)phenol]
